Test results reported in article PMC7879625, “Cell-free oxidized hemoglobin drives reactive oxygen species production and pro-inflammation in an immature primary rat mixed glial cell culture” (Journal of Neuroinflammation, 2021).

Target: T1, human haptoglobin (a mixture of isotype 2-2/2-1) (human, UniProt P00738 19-160; P00738-2 19-101; P00738 162-406)
T1 construct: haptoglobin alpha-2 chain, human; cut product of the haptoglobin precursor (Hp2 allele), present in phenotypes 2-2 and 2-1; haptoglobin alpha-1 chain, human; cut product of the haptoglobin precursor (Hp1 allele), present only in the 2-1 part of the mixture; haptoglobin beta chain, human; cut product of the haptoglobin precursor; A mixture of the polymeric phenotypes 2-2 and 2-1; also called Hp; …
T1 sequence (looked up) 1: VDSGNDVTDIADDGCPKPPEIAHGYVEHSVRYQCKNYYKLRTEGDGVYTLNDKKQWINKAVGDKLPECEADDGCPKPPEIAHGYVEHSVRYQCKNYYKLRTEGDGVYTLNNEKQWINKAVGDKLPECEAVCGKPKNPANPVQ
T1 sequence (looked up) 2: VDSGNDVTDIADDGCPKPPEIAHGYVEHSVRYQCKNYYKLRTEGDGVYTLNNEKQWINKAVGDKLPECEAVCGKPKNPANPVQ
T1 sequence (looked up) 3: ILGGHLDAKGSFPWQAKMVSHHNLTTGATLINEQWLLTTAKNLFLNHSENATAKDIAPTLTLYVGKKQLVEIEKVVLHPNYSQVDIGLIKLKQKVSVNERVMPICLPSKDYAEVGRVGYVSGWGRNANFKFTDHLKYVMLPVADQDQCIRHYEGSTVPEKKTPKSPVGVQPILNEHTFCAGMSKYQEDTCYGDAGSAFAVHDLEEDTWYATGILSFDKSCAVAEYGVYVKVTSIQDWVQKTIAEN
Assay: BLI; Hp immobilised on amine-reactive biosensors in acetate buffer (pH 5.0) for 600 s, Octet Red 96; oxyHb or metHb twofold serially diluted (0-30 nM); global 1:1 kinetic model; three independent experiments
Settings: both partners purified

B1: human oxyhemoglobin (ferrous hemoglobin, Fe2+) (complex)
chain 1: not shown
chain 2: not shown
A Kd of 0.129 nM, a koff of 3.5e-05 s⁻¹ and a kon of 270000 M⁻¹ s⁻¹ were found for B1 in this work.

B2: human methemoglobin (ferric hemoglobin, Fe3+) (complex)
chain 1: not shown
chain 2: not shown
A Kd of 0.141 nM, a koff of 2.8e-05 s⁻¹ and a kon of 200000 M⁻¹ s⁻¹ were found for B2 in this work.
